Reference: ChEMBL document CHEMBL6083291, “Discovery of Thiochroman Derivatives as Potent, Oral Selective Estrogen Receptor Degraders and Antagonists for the Treatment of Endocrine-Resistant Breast Cancer” (J Med Chem, 2024)

Tested on: MCF7
Assay: Induction of degradation of ER-alpha Y537S mutant (unknown origin) expressed in human MCF7 cells at 0.1 to 1000 nM incubated for 24 hrs by western blot analysis
Type: cell-based
Conditions: dose 0.1-1000 nM

| Structure (SMILES) | Activity |
| --- | --- |
| Oc1ccc2c(c1)SC[C@H](c1cc(F)c(F)cc1F)[C@@H]2c1ccc(OCCN2CC(CF)C2)cc1 | Dose-dependent-effect |
| COc1cc(F)ccc1[C@H]1CSc2cc(O)ccc2[C@H]1c1ccc(OCCN2CC(CF)C2)cc1 | Dose-dependent-effect |
